Experimental data taken from paper PMC4349585 (Journal of medicinal chemistry, 2015).

Test system: intraocular pressure (IOP), elevated IOP rat model
Experiment: IOP lowering on rat eyes after topical dosing
Format: in vivo, Brown Norway rats
Settings: topical 50 μg (20 μL of […] solution), initial IOP ~ 28 mmHg

Cc1[nH]c2ncnc(-c3ccc(NC(=O)N(CCN(C)C)c4ccc(Cl)cc4)c(F)c3)c2c1C [Compound 18w, 1-(4-Chlorophenyl)-3-(4-(5,6-dimethyl-7H-pyrrolo[2,3-d]pyrimidin-4-yl)-2-fluorophenyl)-1-(2-(dimethylamino)ethyl)urea]
IOP lowering effect compared to the vehicle: significant decreases in IOP were detected at 4 h
